Data published in patent US12409161B2, “Compound for treating neurodegenerative disorders” (FUDAN UNIVERSITY, priority 2019, dated 2025).

Sequences of proteins named here, by UniProt entry; tags and fusion partners are left off. A change or cut given only in a name is not applied to a line headed by its entry. A line that says so, or that is headed by a name, gives the form on record, which may keep a tag or linker.
UniProt P42858, with tags, fused parts or gaps, stated change not applied: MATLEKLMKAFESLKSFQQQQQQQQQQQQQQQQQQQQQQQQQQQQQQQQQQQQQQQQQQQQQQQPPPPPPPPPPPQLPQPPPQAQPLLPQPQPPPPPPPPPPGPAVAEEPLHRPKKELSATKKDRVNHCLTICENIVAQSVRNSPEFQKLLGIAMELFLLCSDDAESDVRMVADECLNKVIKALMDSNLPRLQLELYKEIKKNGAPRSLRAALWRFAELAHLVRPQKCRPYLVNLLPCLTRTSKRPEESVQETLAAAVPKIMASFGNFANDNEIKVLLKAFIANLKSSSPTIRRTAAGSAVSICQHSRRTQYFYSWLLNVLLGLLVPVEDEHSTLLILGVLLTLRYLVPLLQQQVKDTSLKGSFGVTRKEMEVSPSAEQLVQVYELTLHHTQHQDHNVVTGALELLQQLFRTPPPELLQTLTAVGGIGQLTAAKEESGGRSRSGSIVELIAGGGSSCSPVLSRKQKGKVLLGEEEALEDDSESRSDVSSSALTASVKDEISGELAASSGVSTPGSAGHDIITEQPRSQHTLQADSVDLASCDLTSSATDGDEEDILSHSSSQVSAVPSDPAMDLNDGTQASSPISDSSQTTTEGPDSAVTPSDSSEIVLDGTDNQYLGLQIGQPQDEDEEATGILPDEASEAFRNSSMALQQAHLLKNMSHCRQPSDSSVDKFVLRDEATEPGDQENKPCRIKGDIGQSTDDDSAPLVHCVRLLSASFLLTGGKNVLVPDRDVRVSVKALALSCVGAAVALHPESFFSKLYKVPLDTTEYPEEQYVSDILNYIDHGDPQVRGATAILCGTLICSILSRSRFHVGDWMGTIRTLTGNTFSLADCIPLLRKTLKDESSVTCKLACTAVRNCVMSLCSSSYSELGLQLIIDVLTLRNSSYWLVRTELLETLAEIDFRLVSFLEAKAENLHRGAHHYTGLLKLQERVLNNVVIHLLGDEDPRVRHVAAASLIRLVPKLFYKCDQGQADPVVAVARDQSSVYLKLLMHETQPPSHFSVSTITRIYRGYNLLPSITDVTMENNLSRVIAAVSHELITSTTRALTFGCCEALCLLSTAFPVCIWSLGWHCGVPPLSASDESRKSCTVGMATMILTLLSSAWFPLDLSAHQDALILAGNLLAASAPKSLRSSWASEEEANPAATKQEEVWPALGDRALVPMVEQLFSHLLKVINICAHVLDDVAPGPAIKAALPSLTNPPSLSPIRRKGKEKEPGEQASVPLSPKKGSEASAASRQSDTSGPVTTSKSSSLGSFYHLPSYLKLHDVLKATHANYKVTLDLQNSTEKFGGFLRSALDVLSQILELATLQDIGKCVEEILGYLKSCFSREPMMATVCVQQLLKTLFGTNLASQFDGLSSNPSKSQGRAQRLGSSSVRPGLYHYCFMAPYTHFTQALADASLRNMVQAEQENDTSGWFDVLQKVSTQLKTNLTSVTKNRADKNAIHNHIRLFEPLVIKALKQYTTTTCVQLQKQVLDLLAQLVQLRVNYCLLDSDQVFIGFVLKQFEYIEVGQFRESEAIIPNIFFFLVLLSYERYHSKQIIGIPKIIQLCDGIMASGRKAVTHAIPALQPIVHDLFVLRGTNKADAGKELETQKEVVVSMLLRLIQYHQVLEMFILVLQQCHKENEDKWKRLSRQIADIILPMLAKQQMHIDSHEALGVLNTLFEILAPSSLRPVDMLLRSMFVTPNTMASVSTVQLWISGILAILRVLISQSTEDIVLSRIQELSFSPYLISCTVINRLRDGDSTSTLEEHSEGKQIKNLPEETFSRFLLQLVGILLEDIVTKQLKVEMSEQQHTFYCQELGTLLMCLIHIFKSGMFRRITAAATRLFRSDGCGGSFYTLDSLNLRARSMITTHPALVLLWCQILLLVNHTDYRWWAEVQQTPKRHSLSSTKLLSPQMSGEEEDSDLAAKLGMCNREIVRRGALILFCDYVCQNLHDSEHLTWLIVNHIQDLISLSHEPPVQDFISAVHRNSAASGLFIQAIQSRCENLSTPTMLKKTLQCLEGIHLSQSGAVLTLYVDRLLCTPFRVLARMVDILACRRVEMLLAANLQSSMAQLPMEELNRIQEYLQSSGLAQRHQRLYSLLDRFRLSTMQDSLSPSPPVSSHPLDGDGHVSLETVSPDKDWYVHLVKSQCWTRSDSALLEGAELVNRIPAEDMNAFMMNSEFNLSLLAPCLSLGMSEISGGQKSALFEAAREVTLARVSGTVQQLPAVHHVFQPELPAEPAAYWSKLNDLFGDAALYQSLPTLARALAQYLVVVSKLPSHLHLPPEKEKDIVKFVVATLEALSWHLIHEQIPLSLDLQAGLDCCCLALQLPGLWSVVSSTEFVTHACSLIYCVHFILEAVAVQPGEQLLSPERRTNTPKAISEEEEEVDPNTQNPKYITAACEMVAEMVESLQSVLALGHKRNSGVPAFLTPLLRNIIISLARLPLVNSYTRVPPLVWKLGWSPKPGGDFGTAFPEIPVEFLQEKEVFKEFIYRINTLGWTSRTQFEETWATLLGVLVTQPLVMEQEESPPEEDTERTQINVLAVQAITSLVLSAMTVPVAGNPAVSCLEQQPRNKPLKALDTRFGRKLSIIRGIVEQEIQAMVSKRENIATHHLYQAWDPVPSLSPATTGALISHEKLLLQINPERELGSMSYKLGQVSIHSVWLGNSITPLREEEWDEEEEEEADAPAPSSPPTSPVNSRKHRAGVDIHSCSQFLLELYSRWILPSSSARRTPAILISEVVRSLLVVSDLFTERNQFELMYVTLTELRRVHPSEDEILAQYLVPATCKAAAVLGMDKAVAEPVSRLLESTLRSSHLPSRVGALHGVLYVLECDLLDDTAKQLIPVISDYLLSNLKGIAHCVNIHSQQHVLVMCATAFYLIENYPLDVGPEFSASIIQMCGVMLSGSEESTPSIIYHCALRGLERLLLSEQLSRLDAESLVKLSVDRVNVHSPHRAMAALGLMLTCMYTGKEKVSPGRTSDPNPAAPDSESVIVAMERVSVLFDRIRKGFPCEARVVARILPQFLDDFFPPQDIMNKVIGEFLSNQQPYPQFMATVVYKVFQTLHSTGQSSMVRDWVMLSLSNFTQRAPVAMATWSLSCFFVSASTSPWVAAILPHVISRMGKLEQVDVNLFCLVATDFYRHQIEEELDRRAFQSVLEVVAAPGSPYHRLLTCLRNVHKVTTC
UniProt P42859: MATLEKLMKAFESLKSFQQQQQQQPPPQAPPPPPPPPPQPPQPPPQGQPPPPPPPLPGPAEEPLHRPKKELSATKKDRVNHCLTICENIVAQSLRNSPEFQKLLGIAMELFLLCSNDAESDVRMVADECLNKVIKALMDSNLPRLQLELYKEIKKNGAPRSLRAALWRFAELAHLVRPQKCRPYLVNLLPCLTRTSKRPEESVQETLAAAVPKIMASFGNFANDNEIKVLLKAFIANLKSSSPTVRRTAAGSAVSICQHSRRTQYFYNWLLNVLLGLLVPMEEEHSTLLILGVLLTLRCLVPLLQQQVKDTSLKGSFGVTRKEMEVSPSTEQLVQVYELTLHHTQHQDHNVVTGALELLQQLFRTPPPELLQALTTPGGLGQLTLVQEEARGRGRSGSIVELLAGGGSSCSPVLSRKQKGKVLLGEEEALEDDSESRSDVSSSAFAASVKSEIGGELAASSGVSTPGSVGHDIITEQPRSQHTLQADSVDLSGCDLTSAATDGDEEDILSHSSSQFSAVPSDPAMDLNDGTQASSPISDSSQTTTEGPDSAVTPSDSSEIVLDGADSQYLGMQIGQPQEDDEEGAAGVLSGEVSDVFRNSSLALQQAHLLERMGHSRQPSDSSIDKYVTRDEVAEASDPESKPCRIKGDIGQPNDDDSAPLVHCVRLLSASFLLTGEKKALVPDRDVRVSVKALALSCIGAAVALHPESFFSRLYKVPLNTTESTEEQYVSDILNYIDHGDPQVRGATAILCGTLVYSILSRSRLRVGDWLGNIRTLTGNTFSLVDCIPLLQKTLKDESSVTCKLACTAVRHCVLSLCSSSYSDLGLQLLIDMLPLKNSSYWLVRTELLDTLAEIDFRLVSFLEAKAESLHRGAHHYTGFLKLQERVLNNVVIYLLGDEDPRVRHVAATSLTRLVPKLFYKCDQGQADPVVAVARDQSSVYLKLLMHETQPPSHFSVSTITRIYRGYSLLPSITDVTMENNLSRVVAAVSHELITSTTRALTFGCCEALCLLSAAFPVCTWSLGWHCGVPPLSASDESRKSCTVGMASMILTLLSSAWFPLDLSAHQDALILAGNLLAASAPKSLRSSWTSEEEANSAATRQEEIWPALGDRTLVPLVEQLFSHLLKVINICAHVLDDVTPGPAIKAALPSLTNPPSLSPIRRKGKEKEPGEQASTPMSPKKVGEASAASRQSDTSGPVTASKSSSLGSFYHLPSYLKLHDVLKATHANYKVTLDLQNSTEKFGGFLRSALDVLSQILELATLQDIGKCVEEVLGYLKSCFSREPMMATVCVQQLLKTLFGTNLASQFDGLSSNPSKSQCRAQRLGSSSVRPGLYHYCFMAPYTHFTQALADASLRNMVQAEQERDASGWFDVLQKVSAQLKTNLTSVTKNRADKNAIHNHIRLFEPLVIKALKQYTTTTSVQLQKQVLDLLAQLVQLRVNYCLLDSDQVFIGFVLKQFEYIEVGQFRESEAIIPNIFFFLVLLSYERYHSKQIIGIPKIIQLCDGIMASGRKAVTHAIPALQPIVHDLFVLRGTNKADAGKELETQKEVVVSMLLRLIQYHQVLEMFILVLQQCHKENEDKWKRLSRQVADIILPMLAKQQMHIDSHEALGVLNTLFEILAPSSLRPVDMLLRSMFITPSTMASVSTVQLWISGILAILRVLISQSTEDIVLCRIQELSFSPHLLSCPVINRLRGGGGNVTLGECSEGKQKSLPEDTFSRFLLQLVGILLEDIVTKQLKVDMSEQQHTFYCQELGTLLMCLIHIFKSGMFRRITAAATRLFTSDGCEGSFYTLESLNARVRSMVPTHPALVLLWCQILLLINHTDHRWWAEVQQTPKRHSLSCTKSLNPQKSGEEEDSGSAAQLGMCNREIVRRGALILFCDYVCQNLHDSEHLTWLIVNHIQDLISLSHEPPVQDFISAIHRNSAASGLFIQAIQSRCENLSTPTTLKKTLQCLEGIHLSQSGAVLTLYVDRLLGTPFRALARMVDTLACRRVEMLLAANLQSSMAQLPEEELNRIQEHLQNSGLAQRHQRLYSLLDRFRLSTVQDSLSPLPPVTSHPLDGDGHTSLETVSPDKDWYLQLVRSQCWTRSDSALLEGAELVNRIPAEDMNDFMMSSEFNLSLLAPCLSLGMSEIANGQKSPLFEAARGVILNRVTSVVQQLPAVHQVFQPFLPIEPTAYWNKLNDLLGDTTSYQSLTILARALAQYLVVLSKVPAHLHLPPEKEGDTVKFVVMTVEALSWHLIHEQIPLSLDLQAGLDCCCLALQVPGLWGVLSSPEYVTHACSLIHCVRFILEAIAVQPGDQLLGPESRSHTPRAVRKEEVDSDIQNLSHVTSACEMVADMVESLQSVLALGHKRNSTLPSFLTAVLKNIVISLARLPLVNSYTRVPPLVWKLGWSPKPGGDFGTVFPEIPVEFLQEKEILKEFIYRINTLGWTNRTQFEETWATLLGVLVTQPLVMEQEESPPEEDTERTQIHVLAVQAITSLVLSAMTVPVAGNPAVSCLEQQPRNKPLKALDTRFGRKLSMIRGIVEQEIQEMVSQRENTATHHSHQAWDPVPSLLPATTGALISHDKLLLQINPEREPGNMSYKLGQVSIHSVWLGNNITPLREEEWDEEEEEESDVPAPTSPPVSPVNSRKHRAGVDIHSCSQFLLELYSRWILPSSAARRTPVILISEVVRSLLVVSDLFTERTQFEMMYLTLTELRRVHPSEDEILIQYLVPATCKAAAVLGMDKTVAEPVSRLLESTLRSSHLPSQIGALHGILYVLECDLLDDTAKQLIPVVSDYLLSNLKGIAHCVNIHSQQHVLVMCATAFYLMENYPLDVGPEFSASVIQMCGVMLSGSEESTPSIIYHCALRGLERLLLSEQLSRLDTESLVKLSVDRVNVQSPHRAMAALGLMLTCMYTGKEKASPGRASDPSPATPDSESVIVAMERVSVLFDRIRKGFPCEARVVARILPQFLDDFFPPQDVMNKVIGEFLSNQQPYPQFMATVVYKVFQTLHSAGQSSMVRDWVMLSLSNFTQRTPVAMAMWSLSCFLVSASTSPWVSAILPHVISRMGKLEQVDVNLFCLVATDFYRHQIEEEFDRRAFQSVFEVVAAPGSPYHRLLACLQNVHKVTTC

Assays:
mHTT = biological target: T1, mHTT (Homo sapiens, UniProt P42858, INS38QQQQQQQQQQQQQQQQQQQQQQQQQQ); test: HTRF of mHTT in HD patient iPSC-derived neurons (Q47); format: cell-based; details: HTRF 2B7/MW1, method similar to 5.1
T1 construct: endogenous in cells; host or cells: HD patient iPSC-derived neurons (Q47)

[1] = biological target: T2, human HTT full-length protein (Q128) (Homo sapiens, UniProt P42858); test: mHTT level in heads of Huntington's disease Drosophilae (HTRF); format: in vivo, Drosophila; details: food with 10 μM in 400 μL DMSO, 6 days, head protein, HTRF 2B7/MW1
T2 construct: transgenic Drosophilae expressing human HTT full-length protein (Q128); tissue Bloomington Drosophila Stock Center (fly lines); host or cells: heads of elav-GAL4 x UAS-fl-HTT-Q128 Drosophila
Description: Nervous system driver line elav-GAL4 (c155), HTT expressing lines UAS-fl-HTT-Q16 and UAS-fl-HTT-Q128 were from Bloomington Drosophila Stock Center (http://flystocks.bio.indiana.edu/) and kept in a 25° C. incubator.
Crosses were set up between virgin female Drosophilae carrying elav-GAL4 driver and the UAS-fl-HTT-Q16 or UAS-fl-HTT-Q128 male Drosophilae to generate a transgenic Drosophilae driven by elav-GAL4 to express human HTT full-length protein (Q16) or (Q128) in the nervous system.
[…]. The negative control group was given the corresponding solvent DMSO, and the positive drug groups was given the corresponding positive drug.
Drosophilae were kept in standard food at 25° C. The newly hatched Drosophilae were transferred to vials with food containing the positive drug (10 μM in 400 μL DMSO) or DMSO for control. The corn food was changed every other day.
After fed for 6 consecutive days, the Drosophila head protein was extracted on the 7th day. The mHTT level was measured by HTRF (antibody pair: 2B7/MW1), where each sample included head proteins from five Drosophila (FIG. 14). […]

wtHTT = wtHTT (Mus musculus, UniProt P42859); details: Hdh^Q140/Q7 mouse cortical neurons, treated 2 days, Western-blots (antibody 2166)

In the case of `O=c1cc(-c2ccccc2)c2c(O)cc(O)cc2o1` [compound 2], the “mHTT levels in HD patient iPSC-derived neurons” value (mHTT) is reported as “Decreased mHTT levels”, the “mHTT levels in transgenic Drosophilae” value [1] is reported as “reduced” and the “level of wtHTT in cortical neurons” value (wtHTT) is reported as “hardly affected”.
